These are literature values, as cited in patent US20070212428A1, “METHODS AND COMPOSITIONS FOR TREATING MOOD DISORDER” (MOOD MANAGEMENT SCIENCES, INC., priority 2004, published 2007).

For data set [1], the system named is serotonin 5-HT1A and 5-HT2 receptors, dopamine D1 and D2 receptors, histamine H1 receptors, and adrenergic α1 and α2 receptors. The following applies: cited from earlier work.
The subject of data set [2] is receptors for benzodiazepine, glutamate, N-methyl-D-aspartate (NMDA), quisqualate, kainite, strychnine-insensitive or strychnine-sensitive glycine, α1, α2, or …. Conditions: at concentrations of 100 μM; cited from earlier work.
Data set [3] concerns dopamine D4, serotonin 5-HT2C and 5-HT7, α-adrenergic and histamine H1 receptors. The following applies: cited from earlier work.
In data set [4] the test system is dopamine D2 and D3, serotonin 5-HT1A and 5-HT2A receptors. The following applies: cited from earlier work.
Data set [5] has as its system serotonergic (5-HT1-7) or other receptors including α-adrenergic, β-adrenergic, dopamine (D-1-5), histamine (H1-3), muscarinic (M1-5), and benzodiazepine …. Conditions: cited from earlier work.
Data set [6] concerns serotonin 5-HT2A/2C, dopamine D1-4, muscarinic M1-5, histamine H1, and adrenergic α1 receptors. The following applies: cited from earlier work.

Counter-ions that a name gives are not always drawn.

Regarding `OCCOCCN1CCN(C2=Nc3ccccc3Sc3ccccc32)CC1` [quetiapine, 5-[2-(4-dibenzo[b,f][1,4]thiazepin-11-yl-1-piperazinyl)ethoxy]ethanol fumarate], the functional activity result in data set [1] is listed as “antagonist”. For the molecule “1-(aminoethyl)cyclohexaneacetic acid [gabapentin]”, the affinity result in data set [2] was “does not exhibit affinity”. As for `O=C1CCc2ccc(OCCCCN3CCN(c4cccc(Cl)c4Cl)CC3)cc2N1` [aripiprazole, 7-[4-[4-(2,3-dichlorophenyl)-1-piperazinyl]butoxy]-3,4-dihydrocarbostyril], the affinity result in data set [3] is “moderate affinity”; in data set [4] it was “high affinity”. For the molecule `CN(C)CCC[C@@]1(c2ccc(F)cc2)OCc2cc(C#N)ccc21` [escitalopram, S-(+)-1-[3-(dimethylamino)propyl]-1-(p-fluorophenyl)-5-phthalancarbonitrile oxalate], the affinity entry in data set [5] is “no or very low affinity”. Take `Cc1cc2c(s1)Nc1ccccc1N=C2N1CCN(C)CC1` [olanzapine, 2-methyl-4-(4-methyl-1-piperazinyl)-10H-thieno[2,3-b][1,5]benzodiazepine]: the binding entry in data set [6] is on record as “high affinity binding”.
